The values below come from ChEMBL document CHEMBL4354864, “Bicyclic α-Iminophosphonates as High Affinity Imidazoline I2 Receptor Ligands for Alzheimer's Disease” (J Med Chem, 2020).

Sequences of proteins named here, by UniProt entry; tags and fusion partners are left off.
UniProt P08913, whole entry: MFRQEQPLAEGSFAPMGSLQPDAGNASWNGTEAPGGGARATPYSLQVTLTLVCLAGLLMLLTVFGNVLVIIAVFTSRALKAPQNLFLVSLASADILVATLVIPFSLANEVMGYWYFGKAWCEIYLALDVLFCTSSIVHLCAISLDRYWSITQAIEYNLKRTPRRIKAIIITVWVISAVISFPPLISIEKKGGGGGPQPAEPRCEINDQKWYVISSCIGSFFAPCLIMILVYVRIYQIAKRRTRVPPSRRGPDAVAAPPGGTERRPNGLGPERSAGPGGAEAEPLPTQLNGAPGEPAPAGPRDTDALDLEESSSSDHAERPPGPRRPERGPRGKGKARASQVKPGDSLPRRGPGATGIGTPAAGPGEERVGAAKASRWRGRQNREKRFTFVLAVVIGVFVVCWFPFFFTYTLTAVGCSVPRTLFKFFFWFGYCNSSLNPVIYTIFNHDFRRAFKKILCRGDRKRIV

This assay deals with Alpha-2A adrenergic receptor (Homo sapiens, UniProt P08913). Briefly: biochemical.

The Ki is the dissociation constant of the complex between target and ligand, obtained from inhibition or displacement. A higher Ki goes with lower affinity. `CCOP(=O)(OCC)C1(c2ccccc2)N=CC2C(=O)N(c3ccc(F)c(Cl)c3)C(=O)C21` (racemic): the Ki is 53 nM. This lies in the double-digit nanomolar range.
